According to US12128098B2, “Non-specific delayed-type hypersensitivity response to treat herpes simplex virus infection” (Squarex, LLC, priority 2015, dated 2024):

Test: Presensitization and dose finding with DNCB solutions on the forearm (rash / erythema, DTH response)
Type: in vivo, human
Conditions: 0.2% DNCB solution on forearm
Source text: The subject was presensitized to DNCB by dipping a cotton-tipped swab in a 2% DNCB solution in acetone, and contacting the cotton-tipped swab with two spots on the forearm. […] Two weeks later, the subject again applied a 2% DNCB solution to their forearm at two small spots different from where the sensitizing dose had been applied. […] The subject then applied a 0.1%, 0.2%, and 0.3% solutions to separate small spots on the forearm.

With `O=[N+]([O-])c1ccc(Cl)c([N+](=O)[O-])c1` [DNCB, 1-chloro-2,4-dinitrobenzene] the duration of erythema was “about 3 days” and the “onset of erythema after applying the solution” value was 2 days.
